Target: Tissue-type plasminogen activator (Homo sapiens, UniProt P00750)
Test: Determination of Inhibition Constants
Details: pH 8; 25 °C
Protocol: The measurements were carried out on a microplate reader. Two concentrations of the substrate and five concentrations of the inhibitor were used in the assay. […] The Ki-values were calculated according to Dixon using a linear regression program. The Ki-values reported are means from at least three determinations.

Chains of the proteins cited; added tags and fusions are not shown.
UniProt P00750, whole entry: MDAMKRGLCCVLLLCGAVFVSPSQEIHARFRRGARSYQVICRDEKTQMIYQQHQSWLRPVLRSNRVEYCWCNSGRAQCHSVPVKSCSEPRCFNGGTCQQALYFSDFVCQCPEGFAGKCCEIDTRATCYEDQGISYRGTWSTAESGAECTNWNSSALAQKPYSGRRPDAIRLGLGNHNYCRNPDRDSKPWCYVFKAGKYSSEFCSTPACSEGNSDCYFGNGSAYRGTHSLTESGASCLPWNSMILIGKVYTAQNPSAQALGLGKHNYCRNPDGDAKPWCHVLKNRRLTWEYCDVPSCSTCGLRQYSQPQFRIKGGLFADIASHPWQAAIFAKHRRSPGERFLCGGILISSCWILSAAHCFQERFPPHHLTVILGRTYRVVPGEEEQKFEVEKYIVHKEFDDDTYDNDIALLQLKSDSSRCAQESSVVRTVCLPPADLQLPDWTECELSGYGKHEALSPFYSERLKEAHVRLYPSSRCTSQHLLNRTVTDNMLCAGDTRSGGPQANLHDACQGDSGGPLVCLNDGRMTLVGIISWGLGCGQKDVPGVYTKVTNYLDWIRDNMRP

Ki: > 1000 µM
SMILES: N=C(N)c1ccccc1 [Benzamidine]

Source: BindingDB's records for doi:10.1006/jmbi.2000.3966 (Max-Planck-Institut Fuer Biochemie, 2000)
